Data from PubChem BioAssay AID1984 (Sanford-Burnham Center for Chemical Genomics, 2009).
The list shows a part of the results, in another mix than the full data. Activity calls are given as the source filed them.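 How the source made its calls: active means EGFP signal decrease of at least 30% at 10 µM or well 3 SD below plate mean, unless failing retest; inactive means the rest, including hits failing retest or dose response.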

Sequences of proteins named here, by UniProt entry; tags and fusion partners are left off. Residues count along the entry.
UniProt Q05BA5, 1-1403: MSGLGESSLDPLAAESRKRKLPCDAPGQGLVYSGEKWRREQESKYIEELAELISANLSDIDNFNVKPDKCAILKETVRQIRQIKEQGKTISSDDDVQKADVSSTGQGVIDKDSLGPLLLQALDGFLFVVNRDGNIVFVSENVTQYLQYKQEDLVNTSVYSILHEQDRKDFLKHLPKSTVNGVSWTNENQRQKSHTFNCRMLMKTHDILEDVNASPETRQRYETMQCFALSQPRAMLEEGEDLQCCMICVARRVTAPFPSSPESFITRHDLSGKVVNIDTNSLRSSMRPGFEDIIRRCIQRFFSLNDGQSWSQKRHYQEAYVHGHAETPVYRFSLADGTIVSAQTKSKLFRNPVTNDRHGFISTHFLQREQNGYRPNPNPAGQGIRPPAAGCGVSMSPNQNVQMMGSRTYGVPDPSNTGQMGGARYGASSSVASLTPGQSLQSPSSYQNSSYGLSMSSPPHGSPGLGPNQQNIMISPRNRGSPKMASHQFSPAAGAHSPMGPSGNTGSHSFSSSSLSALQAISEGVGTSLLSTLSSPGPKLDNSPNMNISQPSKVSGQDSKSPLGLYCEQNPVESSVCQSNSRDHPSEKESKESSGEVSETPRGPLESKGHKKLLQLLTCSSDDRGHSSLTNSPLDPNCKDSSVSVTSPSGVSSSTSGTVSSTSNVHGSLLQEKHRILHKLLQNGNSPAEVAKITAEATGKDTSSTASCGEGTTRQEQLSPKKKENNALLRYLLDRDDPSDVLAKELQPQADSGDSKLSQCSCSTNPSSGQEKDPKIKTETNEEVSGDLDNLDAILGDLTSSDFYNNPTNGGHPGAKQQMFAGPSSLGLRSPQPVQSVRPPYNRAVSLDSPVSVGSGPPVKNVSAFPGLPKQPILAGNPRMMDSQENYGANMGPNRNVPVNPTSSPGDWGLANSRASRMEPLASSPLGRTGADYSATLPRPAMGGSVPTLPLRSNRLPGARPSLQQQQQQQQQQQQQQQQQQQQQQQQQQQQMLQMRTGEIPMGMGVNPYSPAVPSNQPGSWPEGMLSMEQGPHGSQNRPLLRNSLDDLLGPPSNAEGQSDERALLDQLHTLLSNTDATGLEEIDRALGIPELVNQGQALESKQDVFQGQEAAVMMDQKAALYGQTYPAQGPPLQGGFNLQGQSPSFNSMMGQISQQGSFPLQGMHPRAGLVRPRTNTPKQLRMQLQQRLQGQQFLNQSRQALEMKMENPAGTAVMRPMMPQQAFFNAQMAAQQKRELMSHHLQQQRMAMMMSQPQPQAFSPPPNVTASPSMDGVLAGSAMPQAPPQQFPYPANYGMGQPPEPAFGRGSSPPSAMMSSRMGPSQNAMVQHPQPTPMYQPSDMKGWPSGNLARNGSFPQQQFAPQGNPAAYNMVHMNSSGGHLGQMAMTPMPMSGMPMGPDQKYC

Target: p/CIP-EGFP fusion (nuclear receptor coactivator 3, mouse) (UniProt Q05BA5)
Experiment: p/CIP-EGFP fusion destabilizers, primary screen, fluorescence, F442A cells (AID 1984)
Conditions: 16 h, at 10 µM, active compounds read high

SMILES	decrease of EGFP signal
Cc1cc(C)cc(N(C(=O)c2ccccc2)C2CCN(C(=O)OC(C)(C)C)CC2)c1	inactive: -7.6%
O=C(NCC1(N2CCOCC2)CCCCC1)c1cc2ccccc2o1	inactive: -4.7%
O=C(OC1CN2CCC1CC2)C1c2ccccc2Oc2ccccc21 (centres undefined)	inactive: -4.3%
N#CC1(Nc2ccccc2)CCN(Cc2ccccc2)CC1	inactive: -10%
CCOC(=O)N1CCC(Nc2ccc(OC)cc2)CC1	inactive: -12.7%
CC(C)(C)OC(=O)N1CCC(N(C(=O)c2ccccc2)c2ccc(F)cc2)CC1	inactive: 2.5%
COc1ccc(C(=O)NCC2(N3CCCCC3)CCCCC2)c(OC)c1OC	inactive: -7.1%
COc1ccc(C(=O)NCC2(N3CCCCC3)CCCCC2)cc1	inactive: -4.3%
O=C(NCC1(N2CCCCC2)CCCCC1)c1ccc(=O)[nH]c1	inactive: 13.7%
CSc1ccccc1C(=O)NCC1(N2CCCCC2)CCCCC1	inactive: -13.5%
Cc1ccc(OCC(C)C)c(CN(CCCl)CCCl)c1	inactive: -13%
COc1cc(C(=O)NCC2(N(C)C)CCCCC2)ccc1OC(F)F	inactive: 6%
CCOC(=O)N1CCC(Nc2cccc(C)c2)CC1	inactive: -10.1%
CCOc1ccc(C)cc1CN(CCCl)CCCl	inactive: -14.5%
CCOC(=O)N1CCC(Nc2ccc(F)cc2)CC1	inactive: -4.6%
COc1ccc(NC2CCN(CCc3ccccc3)CC2)c(OC)c1	inactive: -15.8%
O=C(NCC1(N2CCCCC2)CCCCC1)c1ccc(F)cc1	inactive: -6.3%
O=C(NCC1(N2CCCCC2)CCCCC1)c1cccc(C(F)(F)F)c1	inactive: -2%
O=C(NCC1(N2CCOCC2)CCCCC1)c1cc(=O)[nH]c2ccccc12	inactive: -0.7%
COc1cc(C(=O)NCC2(N3CCCCC3)CCCCC2)ccc1OC(F)F	inactive: -2.3%
COc1ccc(NC2CCN(C(=O)OC(C)(C)C)CC2)cc1	inactive: -13.8%
CN1CCN(CCOC(=O)C(O)(c2ccccc2)c2ccccc2)CC1	inactive: -4.1%
O=C(NCC1(N2CCCCC2)CCCCC1)c1ccc(OC(F)F)cc1	inactive: -10.1%
N#CC1(Nc2ccccc2)CCN(CCc2ccccc2)CC1	inactive: -5.3%
CCN1CCC(Nc2ccc(Cl)cc2)CC1	inactive: -10.4%
O=C(NCC1(N2CCCCC2)CCCCC1)c1cccc([N+](=O)[O-])c1	inactive: -0.8%
CCCOc1ccc(C(=O)NCC2(N(C)C)CCCCC2)cc1OC	inactive: -0.6%

SMILES	decrease of EGFP signal
CC(C)c1ccc(NC2CCN(C(=O)OC(C)(C)C)CC2)cc1	inactive: -8.5%
CN(C)c1cccc(C(=O)NCC2(N3CCCCC3)CCCCC2)c1	inactive: -3.9%
COc1ccc(CN(CCCl)CCCl)cc1Cl	inactive: -5.3%
COc1cc(OC)c(C(=O)NCC2(N(C)C)CCCCC2)cc1OC	inactive: 15.9%
CCOC(=O)N1CCC(Nc2ccc(C)cc2)CC1	inactive: 2.3%
N/C(=N\O)c1c(N)no[n+]1[O-]	inactive: -1.7%
O=C(OC1CN2CCC1CC2)C1c2ccccc2C=Cc2ccccc21 (centres undefined)	inactive: -2.2%
COc1ccc(C(=O)NCC2(N3CCOCC3)CCCCC2)cc1OC	inactive: -9.7%
CN(C)C1(CNC(=O)c2cccc(C#N)c2)CCCCC1	inactive: -5.1%
CCCN1CCC(Nc2cc(OC)cc(OC)c2)CC1	inactive: -7.8%
c1ccc(CN2CCC(Nc3ccccc3)CC2)cc1	inactive: -6.4%
N#Cc1ccc(C(=O)NCC2(N3CCCCC3)CCCCC2)cc1	inactive: 9.3%
CC(C)(C)OC(=O)N1CCC(N(C(=O)c2ccccc2)c2ccc(Cl)cc2)CC1	inactive: 5.2%
CCN1CCC(Nc2cccc(F)c2)CC1	inactive: 3.1%
CN(C)c1ccc(C(=O)NCC2(N3CCCCC3)CCCCC2)cc1	inactive: 5.4%
COc1cc(OC)cc(C(=O)NCC2(N3CCCCC3)CCCCC2)c1	inactive: -19.4%
Fc1ccccc1NC1CCN(Cc2ccccc2)CC1	inactive: 0.9%
COc1cccc(C(=O)N(c2cc(C)cc(C)c2)C2CCN(C(=O)OC(C)(C)C)CC2)c1	inactive: -5.3%
COc1cc(OC)cc(C(=O)NCC2(N3CCOCC3)CCCCC2)c1	inactive: -1.4%
CCC(CO)(C(=O)OC1CN2CCC1CC2)c1ccccc1 (centres undefined)	inactive: -3.9%
CN1CCC(Nc2ccc(Cl)cc2)CC1	inactive: -3%
CCCOc1ccc(C)cc1CN(CCCl)CCCl	inactive: -2.3%
CN1CCC(Nc2ccc(F)c(Cl)c2)CC1	inactive: 10.9%
CCOc1ncccc1C(=O)NCC1(N2CCOCC2)CCCCC1	inactive: -3.3%
O=C(O)C1(Nc2ccccc2)CCN(Cc2ccccc2)CC1	inactive: 1.6%
CC(C)(C)OC(=O)N1CCC(Nc2ccccc2)CC1	inactive: -6.8%
CCCOc1ccc(C(=O)NCC2(N(C)C)CCCCC2)cc1	inactive: 0.4%
